# According to PubChem BioAssay AID651711 (Broad Institute, 2012):
# Sequences of proteins named here, by UniProt entry; tags and fusion partners are left off. A change or cut given only in a name is not applied to a line headed by its entry.
# UniProt Q15084: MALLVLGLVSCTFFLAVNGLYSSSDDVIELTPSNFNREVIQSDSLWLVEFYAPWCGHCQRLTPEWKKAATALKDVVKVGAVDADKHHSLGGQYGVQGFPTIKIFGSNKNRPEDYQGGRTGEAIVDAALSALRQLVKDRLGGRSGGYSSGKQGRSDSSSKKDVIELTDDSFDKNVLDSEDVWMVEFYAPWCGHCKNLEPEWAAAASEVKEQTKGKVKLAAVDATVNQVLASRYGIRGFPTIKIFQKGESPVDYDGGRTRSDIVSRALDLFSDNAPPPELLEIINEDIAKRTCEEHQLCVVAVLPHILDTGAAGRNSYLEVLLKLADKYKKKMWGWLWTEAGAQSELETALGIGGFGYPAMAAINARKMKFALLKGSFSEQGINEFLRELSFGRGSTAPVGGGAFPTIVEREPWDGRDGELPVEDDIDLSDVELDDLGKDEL
# This is a selection; strong and weak results do not stand in their true shares. The source made the active and inactive calls.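 Rule for the calls: active = mean replicate inhibition above about 25%, with every replicate also reaching it (limit read from the data, passing the limit was not always enough); inconclusive = only one of those two criteria met; inactive = neither criterion met.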
# Target: Protein disulfide-isomerase A6 (Homo sapiens) (UniProt Q15084)
# Assay: inhibitors of ERp5-driven insulin aggregation, primary screen, biochemical, turbidity, absorbance 650 nm, single point (AID 651711)
# Details: 90 min, at 9.99 µM, hits give high values
row,Structure (SMILES),inhibition
1,Nc1cccc2ccc([As](=O)(O)O)cc12,inactive: 4.74%
2,COc1ccccc1OP(=O)(Nc1ccc(C)cn1)Oc1ccccc1OC,inactive: 5.64%
3,Cc1ccc(OP(=O)(Nc2nccs2)Oc2ccc(C)cc2)cc1,inactive: -2.07%
4,Clc1ccc(Cl)c(NC2=NCC(CBr)S2)c1 (centres undefined),inactive: 3.51%
5,NC(=O)c1cc([N+](=O)[O-])cc([N+](=O)[O-])c1N,inactive: -5.84%
6,CN(C(=O)Cc1ccc(Cl)c(Cl)c1)[C@H]1CCCC[C@H]1N1CCCC1,inactive: -4.03%
7,Cc1ccc(N/C(=N/P(=O)(N2CCOCC2)N2CCOCC2)N2CCOCC2)cc1,inactive: 0.942%
8,Nc1cc(N)c2nonc2c1[N+](=O)[O-],inactive: -5.41%
9,CC(C)CC(=O)NC(Sc1ccc(Cl)cc1)C(Cl)(Cl)Cl (centres undefined),inactive: 3.74%
10,O=C(NC(Sc1ccncn1)C(Cl)(Cl)Cl)c1ccccc1 (centres undefined),inactive: -0.0995%
11,CCc1cc(O)c([N+](=O)[O-])c(C)c1[N+](=O)[O-],inactive: 1.91%
12,CC(C)(C)C(=O)NC(Sc1ccccc1)C(Cl)(Cl)Cl (centres undefined),inactive: 2.52%
13,CCOc1ccc(C2=NCC(CBr)S2)cc1 (centres undefined),inactive: 2.97%
14,CC(=O)Nc1ccc([As](=O)(O)O)c(O)c1,inactive: 5.68%
15,CC(=O)Nc1ccc(Oc2c([N+](=O)[O-])cc([N+](=O)[O-])cc2[N+](=O)[O-])cc1,inactive: -0.145%
16,CC(=O)c1ccc(N2CC2c2ccncc2)cc1 (centres undefined),inactive: 6.64%
17,N#C/C(=C\c1ccc(N(CCBr)CCBr)cc1)C(N)=O,inactive: -1.29%
18,COC(=O)C1(C)COP(=O)(NCc2ccccc2)OC1 (centres undefined),inactive: 2.35%
19,Cc1ccccc1CN(C)C(=O)COC(=O)C(O)(c1ccccc1)c1ccccc1,inactive: 5.17%
20,C[C@H]1OP(=O)(Oc2ccccc2)C[C@@H]2O[C@@H]21 (some centres undefined),inactive: 4.48%
21,C[C@@H]1C=CCP(=O)(Oc2ccccc2)O1 (some centres undefined),inactive: -1.06%
22,O=P1(N(CCCl)CCCl)OCCC2CCCCN21 (centres undefined),inactive: -1.53%

row,Structure (SMILES),inhibition
1,CCNC(=S)/N=C(\N)N[N+](=O)[O-],inactive: -2.84%
2,O=C(NC1CCS(=O)(=O)C1)NP(=S)(Oc1ccccc1)Oc1ccccc1 (centres undefined),inactive: -3.41%
3,c1ccc(-c2nn[nH]n2)c(-c2nn[nH]n2)c1,inactive: 8.37%
4,Cc1ccc(NP(=O)(Oc2cccc(C)c2)Oc2cccc(C)c2)nc1,inactive: 2.31%
5,CC(NC(=O)COC(=O)C(O)(c1ccccc1)c1ccccc1)c1ccccc1 (centres undefined),inactive: 0.605%
6,Cc1ccccc1OP(=O)(Nc1ccccn1)Oc1ccccc1C,inactive: 0.416%
7,O=c1c2cc([N+](=O)[O-])ccc2[nH]c2c([N+](=O)[O-])cc([N+](=O)[O-])cc12,inactive: 0.252%
8,CN(C)C(=O)Oc1noc2ccccc12,inactive: 2.94%
9,Cc1ccc(OP(=O)(Nc2ccccn2)Oc2ccc(C)cc2)cc1,inactive: -9.78%
10,O=C(OC1CN2CCC1CC2)c1ccccc1 (centres undefined),inactive: 1.27%
11,O=P(Nc1nc2ccccc2s1)(c1ccccc1)c1ccccc1,inactive: 9.8%
12,C[C@H]1OP(=O)(Oc2ccccc2)[C@H](O)[C@H](O)[C@H]1N=[N+]=[N-] (some centres undefined),inactive: 3.78%
13,COc1ccc(N)c([N+](=O)[O-])c1[N+](=O)[O-],inactive: -3.61%
14,Nc1ccc(CCCCOc2ccccc2)cc1,inactive: -2.85%
15,O=P(Nc1ccccn1)(c1ccc(Br)cc1)c1ccc(Br)cc1,inactive: 5.42%
16,CN(C)C1(CNC(=O)c2ccc(Cl)c(S(N)(=O)=O)c2)CCCCC1,inactive: 2.75%
17,C/C(N)=N\P(=O)(OCc1ccccc1)OCc1ccccc1,inactive: -0.754%
18,C(Cc1nn[nH]n1)Cc1nn[nH]n1,inactive: -0.285%
19,Nc1ccc([As](=O)(O)c2ccc([N+](=O)[O-])cc2)cc1,inactive: 3.78%
20,O=[N+]([O-])c1ncn(CCn2cnc([N+](=O)[O-])n2)n1,inactive: 7.31%
21,CC(=O)NC(SC(=S)N(C)C)C(Cl)(Cl)Cl (centres undefined),inactive: -6.46%
22,O=[As](O)(c1ccccc1)c1ccc(O)cc1,inactive: 2.64%
